## Measured affinities in a library of Ab-91 heavy chain variants

Data: MIT Lincoln Laboratory AlphaSeq set, Engelhart et al. 2022, doi:10.1038/s41597-022-01779-4, as distributed in FLAb.

All variants were tested on one target, the spike HR2 peptide PDVDLGDISGINAS (SARS-CoV-2).

Ab-91 is the parent antibody, in scFv form: VL, then a (GGGGS)3 linker, then VH. The light chain is unchanged in all variants.
VL: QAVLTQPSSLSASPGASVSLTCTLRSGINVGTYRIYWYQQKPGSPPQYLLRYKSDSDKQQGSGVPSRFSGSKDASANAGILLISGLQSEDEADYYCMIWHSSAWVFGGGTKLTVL
VH: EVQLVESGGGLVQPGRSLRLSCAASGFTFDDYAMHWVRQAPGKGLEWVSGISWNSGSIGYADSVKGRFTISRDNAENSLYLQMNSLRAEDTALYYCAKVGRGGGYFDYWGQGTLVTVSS

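The parent was found by panning a naive human phage display library on the peptide. Variants in AAYL51 differ from the parent at up to three CDR positions; double and triple changes were sampled at random. The scFvs were displayed on barcoded MATa yeast, the peptide on MATalpha yeast. Mating (16 h, 30 °C) was followed by selection of diploids and sequencing of their barcodes. Scores were corrected for input abundance and mapped to Kd with protein pairs of known affinity run in the same pool. Each pool was mated in three replicate cultures.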

Changes read parent residue, position, new residue, counted from the first residue of the VH shown.
Numbers give log10(Kd / nM), so 0 is 1 nM and 3 is 1 µM. Smaller is tighter.
Averages over replicates are reported, and they cover detected replicates only.
"nd" means that the variant was in the library but no mating with the target was seen in that replicate; the authors take this as a sign of poor binding, and no number exists.
Background: pairings of library AAYL51 with three empty control strains gave a value in 21% of cases (median 4.54, 5th percentile 3.26). Values in that range, when seen in few replicates, are hard to tell from nonspecific mating.

{"changes": "I51N G56V D107W", "replicates, log10 nM": "nd nd nd", "mean, log10 nM": "nd"}
{"changes": "F27Y I58Q", "replicates, log10 nM": "nd nd nd", "mean, log10 nM": "nd"}
{"changes": "D30E G100Q Y105G", "replicates, log10 nM": "3.93 4.59 5.06", "mean, log10 nM": "4.53"}
{"changes": "G56L S63C Y105G", "replicates, log10 nM": "3.74 nd nd", "mean, log10 nM": "3.74"}
{"changes": "D30Q D62N", "replicates, log10 nM": "2.07 1.68 1.39", "mean, log10 nM": "1.71"}
{"changes": "Y60E K65C Y108I", "replicates, log10 nM": "5.31 nd nd", "mean, log10 nM": "5.31"}
{"changes": "S55W S57H A61F", "replicates, log10 nM": "4.81 nd nd", "mean, log10 nM": "4.81"}
{"changes": "F27K F29E G50M", "replicates, log10 nM": "4.21 5.85 nd", "mean, log10 nM": "5.03"}
{"changes": "F27Y A33Q G103Y", "replicates, log10 nM": "3.23 nd nd", "mean, log10 nM": "3.23"}
{"changes": "F27H Y60Q F106E", "replicates, log10 nM": "5.72 nd nd", "mean, log10 nM": "5.72"}
{"changes": "T28N D31Q G102A", "replicates, log10 nM": "0.96 0.92 0.45", "mean, log10 nM": "0.78"}
{"changes": "T28R D30S", "replicates, log10 nM": "3.88 nd nd", "mean, log10 nM": "3.88"}
{"changes": "V99I G100R G104I", "replicates, log10 nM": "4.45 4.10 3.89", "mean, log10 nM": "4.15"}
{"changes": "I51W V64R G104C", "replicates, log10 nM": "nd nd nd", "mean, log10 nM": "nd"}
{"changes": "G26K F29D A33F", "replicates, log10 nM": "4.16 5.39 nd", "mean, log10 nM": "4.77"}
{"changes": "I58W K65Q G104S", "replicates, log10 nM": "3.97 5.33 nd", "mean, log10 nM": "4.65"}
{"changes": "F27D H35F D107E", "replicates, log10 nM": "2.37 3.21 2.39", "mean, log10 nM": "2.66"}
{"changes": "S52R S57V I58F", "replicates, log10 nM": "nd nd nd", "mean, log10 nM": "nd"}
{"changes": "S63Q V99S D107A", "replicates, log10 nM": "nd nd nd", "mean, log10 nM": "nd"}
{"changes": "G59D G100H F106D", "replicates, log10 nM": "5.04 4.37 4.66", "mean, log10 nM": "4.69"}

The first 3 variants above that were never detected:

changes,"replicates, log10 nM","mean, log10 nM"
I51N G56V D107W,nd nd nd,nd
F27Y I58Q,nd nd nd,nd
I51W V64R G104C,nd nd nd,nd